Test system: PADs 1, 2, 3, and 4
Test: Library screening, inhibition of the PADs described in words
Format: biochemical, human
Conditions: 10 μM, PADs 1–4

## NC1=C(Br)C(=O)c2cccnc2C1=O [Compound 21]
  inhibition of the PADs (in words): strong inhibition
